# Assay results as given in patent publication US8063060B2, “R(−)-11-hydroxyaporphine derivatives and uses thereof” (The McLean Hospital Corporation, priority 2004, dated 2011).
# Protein sequences, listed by entry. Tags and fused reporters are not part of them. Residues count along the entry.
# UniProt P61169, 1-415 isoform P61169-2: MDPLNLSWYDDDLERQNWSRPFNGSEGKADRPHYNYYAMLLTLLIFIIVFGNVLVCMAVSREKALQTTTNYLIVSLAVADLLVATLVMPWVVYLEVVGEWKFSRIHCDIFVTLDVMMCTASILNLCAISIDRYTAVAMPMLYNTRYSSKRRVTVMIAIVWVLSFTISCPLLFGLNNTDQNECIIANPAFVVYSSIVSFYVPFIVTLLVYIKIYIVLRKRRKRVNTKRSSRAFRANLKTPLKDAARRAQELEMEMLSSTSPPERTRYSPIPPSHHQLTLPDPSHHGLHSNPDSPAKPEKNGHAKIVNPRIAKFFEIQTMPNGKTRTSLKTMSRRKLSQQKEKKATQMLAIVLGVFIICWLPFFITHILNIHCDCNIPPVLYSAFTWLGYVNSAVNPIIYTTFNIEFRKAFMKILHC
# UniProt P18901, whole entry: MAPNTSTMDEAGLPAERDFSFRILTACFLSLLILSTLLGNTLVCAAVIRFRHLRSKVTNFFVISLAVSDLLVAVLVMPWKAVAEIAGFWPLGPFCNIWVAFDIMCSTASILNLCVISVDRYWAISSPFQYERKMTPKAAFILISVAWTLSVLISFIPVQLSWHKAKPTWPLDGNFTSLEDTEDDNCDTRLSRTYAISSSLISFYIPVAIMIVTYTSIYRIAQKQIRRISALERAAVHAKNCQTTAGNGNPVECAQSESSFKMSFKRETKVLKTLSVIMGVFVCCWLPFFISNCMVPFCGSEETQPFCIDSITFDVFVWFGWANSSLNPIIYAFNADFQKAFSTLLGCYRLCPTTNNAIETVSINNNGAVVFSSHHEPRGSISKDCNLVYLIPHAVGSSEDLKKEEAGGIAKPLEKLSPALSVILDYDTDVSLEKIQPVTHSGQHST
# Experiments:
# dopamine D2 receptor = dopamine D2 receptor (Rattus norvegicus, UniProt P61169); assay: Radioligand competition assay, D2 receptor, rat corpus striatum membranes, [3H]nemonapride; type: binding; settings: rat striatal membranes, 90 minutes at 30° C, read-out: Affinity at rat dopamine receptors, D2
# dopamine D1 receptor = target: T1, dopamine D1 receptor (Rattus norvegicus, UniProt P18901); assay: Radioligand competition assay, D1 receptor, rat corpus striatum membranes, [3H]SCH-23390; type: binding; settings: rat striatal membranes, 0.3 nM [3H]SCH-23390, 30 minutes at 30° C; read-out: Affinity at rat dopamine receptors, D1
# T1 construct: membrane preparations from dopamine-rich corpus striatum (caudatoputamen) tissue from rat forebrain; from tissue; host or cells: corpus striatum (caudatoputamen) of adult male Sprague-Dawley rats
substance,measurement,setting,value
"R(−)-2-fluoro-apomorphine [Compound 20, reference compound]",Ki,dopamine D2 receptor,73.2 ± 11.9 nM
same,Ki,dopamine D1 receptor,231 ± 11 nM
